From patent US11306122B2, “Compositions and methods of inhibiting the binding of plasma IgG autoantibodies to serotonin 2A receptor” (United States Government As Represented By The Department …, priority 2019, dated 2022) come the findings set out here.

The subject of this experiment is N2A mouse neuroblastoma cells. The experiment is described as follows: Acute N2A neurite retraction induced by schizophrenia plasma autoantibodies. It is filed as cell-based. As to the method: Methods: Plasma from five older adults with chronic schizophrenia and eight age-matched patients having another neuropsychiatric, immune or metabolic disorder was subjected to Protein-A affinity chromatography to obtain IgG autoantibodies. Mean neurite retraction (5 minutes) or cell survival (24 hours) was determined in mouse N2A neuroblastoma cells incubated with autoantibodies in the presence or absence of specific antagonists of the Gq/11/PLC/IP3R signaling pathway, Gi-coupled, beta-arrestin2-directed pathways, or LY379268.
Acute neurite retraction assay. Percent of basal neurite length in N2A cells expressing one or more proximally-located dendrite-like process was determined after interval exposure to test substances (Zimering M B, J Endocrinol Diabetes. 2018; 5(2): 10).
A twenty nanomolar concentration of protein-A eluate fraction of plasma from Pt 1 with schizophrenia was incubated with N2A cells in the presence or absence of the indicated concentration of each Gq/11, GPCR antagonist. Results are the mean+/−SD of two experiments.
A forty nanomolar concentration of plasma autoantibodies (AutoAB) from Pt 1 or Pt, schizophrenia, was incubated in the presence or absence of the indicated concentration of RhoA/Rho kinase (ROCK) inhibitor, or individual antagonists of the Gq11/PLC/IP3R signaling pathway. […]

For `CCCN1CCC[C@@H]2Cc3n[nH]cc3C[C@H]21` [quinpirole], the “sensitization of N2A cells to SCZ autoantibody- or DOI-induced neurite retraction” value is given as “did not sensitize”.
